The test addresses human NK2 receptor (Homo sapiens, UniProt P21452). Put plainly: Neurokinin A (NKA) Receptor-binding Assay (Test A), 3H-NKA binding to MEL cells expressing the human NK2 receptor. As to conditions: versus 3H-NKA binding to MEL; standard compound, initial use of this assay. An excerpt: Neurokinin A (NKA) Receptor-binding Assay (Test A)

By UniProt entry, the sequences of proteins in these tests, tags left out.
UniProt P21452, whole entry: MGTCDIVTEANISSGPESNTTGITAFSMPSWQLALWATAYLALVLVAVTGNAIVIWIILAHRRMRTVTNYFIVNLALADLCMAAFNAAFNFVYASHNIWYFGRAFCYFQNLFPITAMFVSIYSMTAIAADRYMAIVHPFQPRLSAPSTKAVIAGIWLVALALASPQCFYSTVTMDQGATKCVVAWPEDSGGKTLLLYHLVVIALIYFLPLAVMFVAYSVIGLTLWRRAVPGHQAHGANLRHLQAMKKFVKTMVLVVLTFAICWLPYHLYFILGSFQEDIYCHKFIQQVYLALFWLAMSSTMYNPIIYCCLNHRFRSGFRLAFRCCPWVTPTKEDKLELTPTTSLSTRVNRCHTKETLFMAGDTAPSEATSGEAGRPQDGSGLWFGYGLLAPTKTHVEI

`CSCC[C@@H]1NC(=O)[C@H](CC(C)C)NC(=O)CNC(=O)[C@H](Cc2ccccc2)NC(=O)[C@H](Cc2c[nH]c3ccccc23)NC(=O)[C@H](CCC(N)=O)NC1=O`: the IC50 (in general, the concentration that gives 50% inhibition) was found to be 30 nM.

For the origin of these results see US5977135A.
